IC50 data for one compound are collected here from ChEMBL document CHEMBL1131688, “Solution-phase and solid-phase synthesis of novel transition state inhibitors of coagulation enzymes incorporating a piperidinyl moiety” (Bioorg Med Chem Lett, 1999).

The target of this assay is Prothrombin (Homo sapiens, UniProt P00734). The assay is described as follows: Inhibitory activity against thrombin.

As usually defined, the IC50 is the midpoint of a concentration-inhibition curve. Regarding `CC1CNc2c(cccc2S(=O)(=O)N[C@@H](CCCNC(=N)N)C(=O)N2CCC(C)C[C@@H]2C(=O)O)C1` (single isomer, unassigned) [ARGATROBAN], half-maximal inhibition (IC50) required 550 nM.
